Data on 2 compounds can be found in patent publication US4746659A, “Diastereomers of 10-alkyl-10-deazaminopterins and process for preparing the same” (priority 1985, dated 1988).

In brackets after ≈: the same amount, converted by molar mass.

In this assay the test system is Lactobacillus casei. Nature of the assay: Growth inhibition of Lactobacillus casei (ATCC 7469). The format is cell-based. As to conditions: Lacticaseibacillus casei, ATCC7469, L. casei ATCC 7469; folate concentration = 1 ng/mL; read-out: Minimum Inhibitory Concentration50 for growth inhibition, L. casei.

Consider `CCC(Cc1cnc2nc(N)nc(N)c2n1)c1ccc(C(=O)N[C@@H](CCC(=O)O)C(=O)O)cc1` (single isomer, unassigned) [l, L-10-ethyl, l,L-10-ethyl-10-deazaminopterin], for which the IC50 was 0.23 ng/mL (≈ 0.492 nM).
As to `CCC(Cc1cnc2nc(N)nc(N)c2n1)c1ccc(C(=O)N[C@@H](CCC(=O)O)C(=O)O)cc1` (stereo partly drawn) [d, L-10-ethyl, d,L-10-ethyl-10-deazaminopterin], the IC50 stood at 0.29 ng/mL (≈ 0.62 nM).
